Measurements: patent US20190300590A1 (PROTAGONIST THERAPEUTICS, published 2019)
Values belong to the binder of their own block, whether it stands above or below them.

Experiments:
IL23R_huFC [1] = target: T1, IL23R_huFC (human, UniProt Q5VWK5 24-353); assay: IL23-IL23R competitive binding ELISA
T1 sequence (looked up): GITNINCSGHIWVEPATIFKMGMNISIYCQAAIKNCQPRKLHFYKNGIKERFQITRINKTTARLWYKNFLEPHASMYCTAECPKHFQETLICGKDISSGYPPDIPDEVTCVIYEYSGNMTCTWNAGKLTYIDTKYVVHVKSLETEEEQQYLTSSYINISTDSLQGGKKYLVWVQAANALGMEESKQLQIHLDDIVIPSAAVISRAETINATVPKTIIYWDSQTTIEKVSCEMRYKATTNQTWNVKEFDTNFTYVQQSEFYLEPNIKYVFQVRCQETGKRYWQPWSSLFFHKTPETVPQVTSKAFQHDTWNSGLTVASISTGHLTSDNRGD

[2] = target: T2, Recombinant human IL-23 (Humanzyme) (human, UniProt Q9NPF7 20-189; P29460 23-328); assay: SPR, IL-23R_huFC captured on anti-human IgG, IL-23 as analyte
T2 sequence (looked up) 1: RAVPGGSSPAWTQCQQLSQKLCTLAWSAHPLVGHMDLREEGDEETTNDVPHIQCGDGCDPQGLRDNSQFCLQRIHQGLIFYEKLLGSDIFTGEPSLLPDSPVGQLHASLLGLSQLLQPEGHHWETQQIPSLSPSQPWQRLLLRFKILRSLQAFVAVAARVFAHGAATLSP
T2 sequence (looked up) 2: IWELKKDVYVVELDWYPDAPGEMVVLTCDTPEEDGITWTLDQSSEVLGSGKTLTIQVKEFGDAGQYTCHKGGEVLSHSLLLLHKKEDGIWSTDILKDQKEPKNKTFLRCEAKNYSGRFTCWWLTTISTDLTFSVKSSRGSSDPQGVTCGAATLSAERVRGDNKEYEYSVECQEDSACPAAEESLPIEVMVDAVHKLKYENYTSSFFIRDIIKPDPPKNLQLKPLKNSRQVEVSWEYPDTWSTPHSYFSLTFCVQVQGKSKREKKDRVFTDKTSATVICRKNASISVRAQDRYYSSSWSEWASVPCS

IL23R_huFC [3] = target: T3, IL23R_huFC (human, UniProt Q5VWK5 24-353); assay: IL23-IL23R competitive ELISA
T3 sequence (looked up): T1 sequence (looked up)

B1: Ac-CRTWQCYWQEKGTD-NH2 (peptide)
peptide: CRTWQCYWQEKGTD
modifications: Ac; NH2
- IC50 (IL23R_huFC [1]): 118 nM

B2: Ac-CQTWQCYWRNFESG-NH2 (peptide)
peptide: CQTWQCYWRNFESG
modifications: Ac; NH2
- IC50 (IL23R_huFC [1]): 315 nM

B3: Recombinant human IL-23R_huFC (RnD) (Fc fusion, UniProt Q5VWK5 24-353, looked up, not shown: a dimerising Fc or GST)
chain: T1 sequence (looked up)
- Kd [2]: 1.69 nM

B4: Ac-CRTWQCYWRENGA-[(D)Lys]-NH2 (peptide)
peptide: CRTWQCYWRENGAK
modifications: Ac-; [(D)Lys]; -NH2
- IC50 (IL23R_huFC [3]): 102 nM

B8: Ac-CQTWQCYW-[hLeu]-ENGL-NH2 (peptide)
peptide: CQTWQCYWLENGL
modifications: Ac; hLeu; NH2
- IC50 (IL23R_huFC [1]): 174 nM

Continued, values first:

- IC50 (IL23R_huFC [1]): 818 nM
B5: Ac-CQTWQCYW-[hLeu]-ETG-NH2 (peptide)
peptide: CQTWQCYWLETG
modifications: Ac; hLeu; NH2

- IC50 (IL23R_huFC [1]): 109 nM
B6: Ac-CQTWQCYW-[hLeu]-TNG-NH2 (peptide)
peptide: CQTWQCYWLTNG
modifications: Ac; hLeu; NH2

- IC50 (IL23R_huFC [1]): 4830 nM
B7: Ac-CQTWQCYW-[hLeu]-PNG-NH2 (peptide)
peptide: CQTWQCYWLPNG
modifications: Ac; hLeu; NH2
